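In this assay, cells in 96-well plates receive the compound at five concentrations for 48 hours. Endpoints are linearly interpolated between the surrounding concentrations. At the GI50, growth is halved. At the TGI there is no net growth.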
What was measured:
Experiment in all cases: growth of human tumour cells (NCI), 48 h
[1] = tested on: SF-539 CNS
[2] = tested on: SR leukemia
[3] = tested on: NCI-H226 lung
[4] = tested on: SN12C renal
[5] = tested on: MDA-MB-435
[6] = tested on: OVCAR-5 ovarian
[7] = tested on: LOX IMVI melanoma
[8] = tested on: HL-60(TB) leukemia
[9] = tested on: NCI-H322M lung
[10] = tested on: NCI-H460 lung
[11] = tested on: U251 CNS
[12] = tested on: HS 578T breast
[13] = tested on: HOP-62 NSCLC
[14] = tested on: MDA-N
[15] = tested on: HCT-116 colon
[16] = tested on: SNB-75 CNS
[17] = tested on: M14 melanoma
[18] = tested on: UACC-62 melanoma
[19] = tested on: BT-549 breast
[20] = tested on: MCF7 breast
[21] = tested on: HT29 colon
[22] = tested on: UACC-257 melanoma
[23] = tested on: MOLT-4 leukemia
[24] = tested on: A498 renal
[25] = tested on: ACHN renal
[26] = tested on: UO-31 renal
[27] = tested on: TK-10 renal
[28] = tested on: NCI-H23 lung
[29] = tested on: HCC-2998 colon
[30] = tested on: HCT-15 colon
[31] = tested on: RPMI-8226 leukemia
[32] = tested on: T-47D breast
[33] = tested on: NCI-H522 lung
[34] = tested on: OVCAR-3 ovarian
[35] = tested on: MDA-MB-231 breast
[36] = tested on: CCRF-CEM leukemia
[37] = tested on: SK-MEL-28 melanoma
[38] = tested on: KM12 colon
[39] = tested on: SK-MEL-2 melanoma
[40] = tested on: EKVX NSCLC
[41] = tested on: MALME-3M melanoma
[42] = tested on: SNB-19 CNS
[43] = tested on: SK-OV-3 ovarian
[44] = tested on: RXF 393 renal
[45] = tested on: K-562 leukemia
[46] = tested on: DU-145 prostate

With `CCOP(C)(=O)OC(C(F)(F)F)C(F)(F)F` (configuration not stated) the GI50 [1] was over 100 µM, the TGI [1] was over 100 µM and the GI50 [2] was over 100 µM. The TGI [2] was over 100 µM, the GI50 [3] was over 100 µM and the TGI [3] was over 100 µM. For the same molecule, the GI50 [4] was over 100 µM, the TGI [4] was over 100 µM and the GI50 [5] was over 100 µM. For the same molecule, the TGI [5] was over 100 µM, the GI50 [6] was over 100 µM and the TGI [6] was over 100 µM. For the same molecule, the GI50 [7] was over 100 µM, the TGI [7] was over 100 µM and the GI50 [8] was over 100 µM. For the same molecule, the TGI [8] was over 100 µM, the GI50 [9] was over 100 µM and the TGI [9] was over 100 µM. The GI50 [10] was over 100 µM, the TGI [10] was over 100 µM and the GI50 [11] was over 100 µM. It also gave a TGI [11] of over 100 µM, a GI50 [12] of over 100 µM and a TGI [12] of over 100 µM. The GI50 [13] was over 100 µM, the TGI [13] was over 100 µM and the GI50 [14] was over 100 µM. For the same molecule, the TGI [14] was over 100 µM, the GI50 [15] was over 100 µM and the TGI [15] was over 100 µM. The GI50 [16] was over 100 µM, the TGI [16] was over 100 µM and the GI50 [17] was over 100 µM. It also gave a TGI [17] of over 100 µM, a GI50 [18] of over 100 µM and a TGI [18] of over 100 µM. It also gave a GI50 [19] of over 100 µM, a TGI [19] of over 100 µM and a GI50 [20] of over 100 µM. The TGI [20] was over 100 µM, the GI50 [21] was over 100 µM and the TGI [21] was over 100 µM. The GI50 [22] was over 100 µM, the TGI [22] was over 100 µM and the GI50 [23] was over 100 µM. It also gave a TGI [23] of over 100 µM, a GI50 [24] of over 100 µM and a TGI [24] of over 100 µM. The GI50 [25] was over 100 µM, the TGI [25] was over 100 µM and the GI50 [26] was over 100 µM. The TGI [26] was over 100 µM, the GI50 [27] was over 100 µM and the TGI [27] was over 100 µM. It also gave a GI50 [28] of over 100 µM, a TGI [28] of over 100 µM and a GI50 [29] of over 100 µM. The TGI [29] was over 100 µM, the GI50 [30] was over 100 µM and the TGI [30] was over 100 µM. The GI50 [31] was over 100 µM, the TGI [31] was over 100 µM and the GI50 [32] was over 100 µM. For the same molecule, the TGI [32] was over 100 µM, the GI50 [33] was over 100 µM and the TGI [33] was over 100 µM. The GI50 [34] was over 100 µM, the TGI [34] was over 100 µM and the GI50 [35] was over 100 µM. It also gave a TGI [35] of over 100 µM, a GI50 [36] of over 100 µM and a TGI [36] of over 100 µM. It also gave a GI50 [37] of over 100 µM, a TGI [37] of over 100 µM and a GI50 [38] of over 100 µM. The TGI [38] was over 100 µM, the GI50 [39] was over 100 µM and the TGI [39] was over 100 µM. The GI50 [40] was over 100 µM, the TGI [40] was over 100 µM and the GI50 [41] was over 100 µM. It also gave a TGI [41] of over 100 µM, a GI50 [42] of over 100 µM and a TGI [42] of over 100 µM. For the same molecule, the GI50 [43] was over 100 µM, the TGI [43] was over 100 µM and the GI50 [44] was over 100 µM. It also gave a TGI [44] of over 100 µM, a GI50 [45] of over 100 µM and a TGI [45] of over 100 µM. The GI50 [46] was over 100 µM and the TGI [46] was over 100 µM.
